Data as given in PubChem BioAssay AID2130 (The Scripps Research Institute Molecular Screening Center, 2009).
The entries are a selection whose mix differs from that of the whole data set. Some salts or complexes appear as unconnected parts, following the source record. The source made the active and inactive calls.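 The calls were made as follows: active = inhibition above the campaign mean of all compounds plus 3 SD (cut at about 26% in these data); inactive = the rest.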

Amino acid sequences for entries named in this document (tags omitted).
UniProt Q9Y570, whole entry: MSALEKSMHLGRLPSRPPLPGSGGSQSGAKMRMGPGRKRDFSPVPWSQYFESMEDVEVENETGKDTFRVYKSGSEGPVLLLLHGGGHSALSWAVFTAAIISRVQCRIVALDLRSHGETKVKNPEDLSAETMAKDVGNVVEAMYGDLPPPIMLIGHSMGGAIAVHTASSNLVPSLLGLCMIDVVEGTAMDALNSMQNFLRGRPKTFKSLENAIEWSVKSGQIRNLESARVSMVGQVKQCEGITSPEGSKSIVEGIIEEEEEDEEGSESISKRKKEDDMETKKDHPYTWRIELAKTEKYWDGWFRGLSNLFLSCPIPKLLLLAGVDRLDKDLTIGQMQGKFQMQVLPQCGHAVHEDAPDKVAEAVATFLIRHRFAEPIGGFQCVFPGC

The compounds below were run against Protein phosphatase methylesterase 1 (Homo sapiens) (UniProt Q9Y570) (assay: PME-1 inhibitors via competitive probe labeling, primary screen, biochemical, fluorescence polarization, FP-Rh probe, HTS (AID 2130;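 also: competitive labeling of PME-1 active site by serine hydrolase directed probe; 0% = PME-1 with DMSO and 100% = wells lacking PME-1 enzyme; inhibitors block probe labeling so polarization falls and inhibition rises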)). Settings: recombinant PME-1, FP-Rh probe fluorescence polarization; at 5.9 µM; stronger effect = higher value.
For `O=C(O)c1cccc(Nc2c([N+](=O)[O-])cc([N+](=O)[O-])cc2[N+](=O)[O-])c1`, the inhibition was inactive: -2.4%.
For `CC1=NCCc2c1[nH]c1ccccc21.O=[N+]([O-])c1cc([N+](=O)[O-])c(O)c([N+](=O)[O-])c1`, the inhibition was inactive: 0.22%.
In the case of `COc1ccccc1OP(C)(=O)Nc1cccc(Br)c1` (stereo not drawn), the inhibition was inactive: 3.09%.
For `Cc1cc(C)cc(OP(C)(=O)Nc2ccc(C)cc2C)c1` (stereo not drawn), the inhibition was inactive: 6.61%.
In the case of `CCOC(=O)c1ccc(NP(C)(=O)Oc2cc(C)cc(C)c2)cc1` (stereo not drawn), the inhibition was inactive: -7.25%.
`Cc1cc(C)cc(OP(C)(=O)Nc2ccccn2)c1` (stereo not drawn) was tested, and the inhibition was inactive: -9.47%.
With `CP(=O)(Nc1cccc(Br)c1)Oc1ccccc1` (stereo not drawn) the inhibition was inactive: 12.3%.
In the case of `Cc1ccc(C)c(NP(C)(=O)Oc2ccccc2)c1` (stereo not drawn), the inhibition was inactive: 14.1%.
`O=[N+]([O-])c1cc([N+](=O)[O-])c(-n2nnc3ccccc32)c([N+](=O)[O-])c1` was tested, and the inhibition was inactive: -1.95%.
With `O=[N+]([O-])c1cc([N+](=O)[O-])c(-c2cnn(-c3ccccc3)c2)c([N+](=O)[O-])c1` the inhibition was inactive: 10.7%.
In the case of `Cc1nc2ccc3ccccc3c2s1.O=[N+]([O-])c1cc([N+](=O)[O-])c(O)c([N+](=O)[O-])c1`, the inhibition was inactive: -2.83%.
With `CCOC(=O)C(CC)C1=NC(C)(C)Cc2ccccc21.O=[N+]([O-])c1cc([N+](=O)[O-])c(O)c([N+](=O)[O-])c1` (stereo not drawn) the inhibition was inactive: -0.71%.
With `CC1=C2N=C(C=C3N=C(C(C)=C4[N-][C@@](C)([C@@H]5N=C1[C@](C)(CCC(=O)NC[C@@H](C)OP(=O)([O-])O[C@H]1[C@@H](O)[C@@H](n6cnc7cc(C)c(C)cc76)O[C@@H]1CO)[C@H]5CC(N)=O)[C@@](C)(CC(N)=O)[C@@H]4CCC(N)=O)[C@@](C)(CC(N)=O)[C@@H]3CCC(N)=O)C(C)(C)[C@@H]2CCC(N)=O.[C-]#N.[Co+3]` the inhibition was inactive: 5.58%.
`O=[N+]([O-])c1cc([N+](=O)[O-])c(Nc2nnnn2CCO)c([N+](=O)[O-])c1` was tested, and the inhibition was inactive: -4.32%.
`CN1CCCCC1COC(=O)C1(O)c2ccccc2CCc2ccccc21` (stereo not drawn) was tested, and the inhibition was inactive: -1.47%.
In the case of `COc1ccccc1OP(C)(=O)Nc1c(C)cccc1C` (stereo not drawn), the inhibition was active: 37.3%.
With `CCCOc1ccc(NP(C)(=O)Oc2ccc(Cl)cc2)cc1` (stereo not drawn) the inhibition was inactive: 12.5%.
With `CP(=O)(Nc1ccc(SC(F)(F)F)cc1)Oc1ccccc1` (stereo not drawn) the inhibition was inactive: -0.09%.
With `CP(=S)(Nn1cnnc1)Oc1ccccc1` (stereo not drawn) the inhibition was inactive: -0.2%.
With `COc1ccccc1OP(C)(=O)Nc1ccccc1` (stereo not drawn) the inhibition was inactive: 5.7%.
With `CP(=O)(Nc1ccccc1Br)Oc1ccccc1` (stereo not drawn) the inhibition was active: 60.7%.
`CP(=O)(Oc1ccccc1)OC(c1ccccc1)C(F)(F)F` (stereo not drawn) was tested, and the inhibition was inactive: -3.83%.
In the case of `CP(=O)(Nc1ccc(SC(F)(F)F)cc1)Oc1ccc(Cl)cc1` (stereo not drawn), the inhibition was inactive: 19.2%.
In the case of `Cc1cccc(C)c1OP(C)(=O)Nc1ccc(SC(F)(F)F)cc1` (stereo not drawn), the inhibition was inactive: 2.41%.
For `Cc1cc(C)cc(OP(C)(=O)Nc2ccc(SC(F)(F)F)cc2)c1` (stereo not drawn), the inhibition was inactive: 9.09%.
With `CP(=O)(NC(=O)Nc1ccccc1)Oc1ccccc1` (stereo not drawn) the inhibition was inactive: 5.81%.
In the case of `CCc1ccc(OP(C)(=O)N2CCN(c3ccc([N+](=O)[O-])cc3)CC2)cc1` (stereo not drawn), the inhibition was inactive: 8.17%.
With `CCOP(C)(=S)SCC(=O)NC(C)C(=O)O` (stereo not drawn) the inhibition was inactive: 2.45%.
For `O=[N+]([O-])c1cc([N+](=O)[O-])c(O)c([N+](=O)[O-])c1.c1ccc(Oc2ccncc2)cc1`, the inhibition was inactive: -1.07%.
With `CCOC(=O)c1ccc(NP(C)(=O)Oc2ccc(OC)cc2)cc1` (stereo not drawn) the inhibition was inactive: 4.26%.
`CP(=O)(Nc1ccccn1)Oc1ccc(Cl)cc1` (stereo not drawn) was tested, and the inhibition was inactive: 7.7%.
In the case of `CCN(CC)CCCOC(=O)C(O)(c1ccccc1)c1ccccc1`, the inhibition was inactive: 2.38%.
In the case of `O=[N+]([O-])c1cc([N+](=O)[O-])c(Nc2cccnc2)c([N+](=O)[O-])c1`, the inhibition was inactive: 15.5%.
`Cc1cccc(C)c1OP(C)(N)=O` (stereo not drawn) was tested, and the inhibition was inactive: 4.14%.
With `CC(C)(C)c1ccc(OP(C)(=O)Nc2ccc(SC(F)(F)F)cc2)cc1` (stereo not drawn) the inhibition was inactive: -1.97%.
In the case of `O=[N+]([O-])c1ccc2c(c1)C=Nc1ccccc1O2`, the inhibition was inactive: -1.17%.
For `CCOC(=O)c1ccc(NP(C)(=O)Oc2ccccc2)cc1` (stereo not drawn), the inhibition was inactive: 11.4%.
For `Cc1ccc(NP(C)(=O)Oc2ccccc2)c(C)c1` (stereo not drawn), the inhibition was inactive: 6.95%.
For `COc1ccccc1OP(C)(=O)Nc1ccc(C)cc1` (stereo not drawn), the inhibition was inactive: -7.93%.
`COc1ccc(OP(C)(=O)Nc2cccc(F)c2)cc1` (stereo not drawn) was tested, and the inhibition was inactive: -0.51%.
With `COc1ccccc1OP(C)(=O)Nc1cc(Cl)ccc1C` (stereo not drawn) the inhibition was inactive: 4.17%.
With `Cc1cc(C)cc(OP(C)(N)=O)c1` (stereo not drawn) the inhibition was inactive: -1.61%.
With `Cc1cc(C)cc(OP(C)(=O)Nc2cccc(C(F)(F)F)c2)c1` (stereo not drawn) the inhibition was inactive: 3.66%.
`COc1ccc(OP(C)(=O)Nc2ccccc2Br)cc1` (stereo not drawn) was tested, and the inhibition was inactive: 4.34%.
For `COc1ccccc1OP(C)(=O)Nc1ccc(C)c(C)c1` (stereo not drawn), the inhibition was inactive: 2.45%.
In the case of `Cc1nc2ccc3ccccc3c2o1.O=[N+]([O-])c1cc([N+](=O)[O-])c(O)c([N+](=O)[O-])c1`, the inhibition was inactive: -6.31%.
For `CP(=O)(Nc1ccc(Cl)cc1Cl)Oc1ccccc1` (stereo not drawn), the inhibition was inactive: 7.3%.
`CP(=O)(OCCOc1ccccc1)OCCOc1ccccc1` was tested, and the inhibition was inactive: -1.32%.
With `COc1ccccc1OP(C)(=O)Nc1ccc(Br)cc1` (stereo not drawn) the inhibition was inactive: -0.57%.
With `CN(C)CCOC(=O)C(O)(c1ccccc1)C1CCCC1` (stereo not drawn) the inhibition was inactive: -5.44%.
For `COc1ccc(OP(C)(=O)Nc2ccccn2)cc1` (stereo not drawn), the inhibition was inactive: -8.07%.
`Cc1c(NP(C)(=O)Oc2ccc(C(C)C)cc2)c(=O)n(-c2ccccc2)n1C` (stereo not drawn) was tested, and the inhibition was inactive: 2%.
`O=[N+]([O-])c1cc([N+](=O)[O-])c(Nc2ccccn2)c([N+](=O)[O-])c1` was tested, and the inhibition was inactive: 1.84%.
`CCc1ccc(OP(C)(=O)O)cc1` was tested, and the inhibition was inactive: -3.66%.
For `COc1ccccc1OP(C)(=O)Nc1ccc(C)cc1C` (stereo not drawn), the inhibition was inactive: 1.31%.
In the case of `CP(=O)(Nc1ccccn1)Oc1ccccc1` (stereo not drawn), the inhibition was inactive: 5.39%.
In the case of `COc1ccc(OP(C)(=O)Nc2ccc(Br)cc2)cc1` (stereo not drawn), the inhibition was inactive: 11%.
`CCN(CC)CC(O)COC(=O)C(O)(c1ccccc1)C1CCCCC1` (stereo not drawn) was tested, and the inhibition was inactive: 1.11%.
With `CCc1ccc(OP(C)(=O)Nc2cccnc2)cc1` (stereo not drawn) the inhibition was inactive: 0%.
In the case of `CP(=O)(Oc1ccccc1)N1CCOC1=O` (stereo not drawn), the inhibition was inactive: 0.55%.
In the case of `O=C(OCCCN1CCCC1)C(O)(c1ccccc1)C1CCCCC1` (stereo not drawn), the inhibition was inactive: -1.94%.
In the case of `COc1ccccc1OP(C)(=O)Nc1c(C)n(C)n(-c2ccccc2)c1=O` (stereo not drawn), the inhibition was inactive: -0.76%.
`CP(=O)(Nc1ccc(Cl)cc1)Oc1ccc(F)cc1` (stereo not drawn) was tested, and the inhibition was inactive: 6.96%.
`COc1ccccc1OP(C)(=O)Nc1ccccc1Br` (stereo not drawn) was tested, and the inhibition was inactive: 12.7%.
With `CC(C)(C)c1ccc(OP(C)(=O)O)cc1` the inhibition was inactive: 3.07%.
With `CN(C)C(=O)c1c([N+](=O)[O-])cc([N+](=O)[O-])cc1[N+](=O)[O-]` the inhibition was inactive: 0.06%.
In the case of `Nc1ccc2c(ccc3cccnc32)n1.O=[N+]([O-])c1cc([N+](=O)[O-])c(O)c([N+](=O)[O-])c1`, the inhibition was inactive: 3.32%.
`CP(=O)(OC12CC3CC(CC(C3)C1)C2)OC12CC3CC(CC(C3)C1)C2` was tested, and the inhibition was inactive: 2.84%.
With `CCOC(=O)c1ccc(NP(C)(=O)Oc2ccc(Cl)cc2)cc1` (stereo not drawn) the inhibition was active: 35%.
`COc1ccc(OP(C)(=O)Nc2cccc(Br)c2)cc1` (stereo not drawn) was tested, and the inhibition was inactive: -0.92%.
With `COc1ccc(NP(C)(=O)Oc2ccccc2OC)cc1` (stereo not drawn) the inhibition was inactive: 0.46%.
With `CN(C)CCOC(=O)C(O)(c1ccccc1)C1CCCCC1` (stereo not drawn) the inhibition was inactive: 6.96%.
With `O=[N+]([O-])c1cc([N+](=O)[O-])c(NCC2CCS(=O)(=O)C2)c([N+](=O)[O-])c1` (stereo not drawn) the inhibition was inactive: 7.69%.
With `CP(=O)(Nc1ccc(SC(F)(F)F)cc1)Oc1ccc(F)cc1` (stereo not drawn) the inhibition was inactive: 2.49%.
`CCOP(C)(=S)SCC(=O)NC(C)(CC)C(=O)O` (stereo not drawn) was tested, and the inhibition was inactive: 3.93%.
In the case of `CP(=O)(Nc1ccc2c(c1)OCCO2)Oc1ccccc1` (stereo not drawn), the inhibition was inactive: 5.48%.
In the case of `Cc1ccccc1NP(C)(=O)Nc1ccccc1C`, the inhibition was inactive: -0.93%.
`CC(C)c1ccc(OP(C)(=O)Nc2ccc(SC(F)(F)F)cc2)cc1` (stereo not drawn) was tested, and the inhibition was inactive: -1.01%.
`CP(=O)(Nc1ccccc1F)Oc1ccccc1` (stereo not drawn) was tested, and the inhibition was inactive: 12.2%.
`O=C(OCCN1CCN(CCOCc2ccccc2)CC1)C(O)(c1ccccc1)c1ccccc1` was tested, and the inhibition was inactive: -6.81%.
For `O=C(OC1CN2CCC1CC2)c1ccc([N+](=O)[O-])cc1` (stereo not drawn), the inhibition was inactive: 2.35%.
`COc1ccc2c(c1O)-c1c(O)c(OC)cc3c1[C@H](C2)[N+](C)(C)CC3.O=[N+]([O-])c1cc([N+](=O)[O-])c([O-])c([N+](=O)[O-])c1[O-]` was tested, and the inhibition was inactive: -3.3%.
For `COc1ccc(OP(C)(=O)Nc2ccc(SC(F)(F)F)cc2)cc1` (stereo not drawn), the inhibition was inactive: -1.44%.
In the case of `CCOC(=O)c1ccc(NP(C)(=O)Oc2ccc(F)cc2)cc1` (stereo not drawn), the inhibition was inactive: 24.3%.
For `CCN(CC)CCCOC(=O)C(O)(c1ccccc1)C1CCCCC1` (stereo not drawn), the inhibition was inactive: 3.72%.
In the case of `CCCCCOc1ccc(NP(C)(=O)Oc2ccc(Cl)cc2Cl)cc1` (stereo not drawn), the inhibition was active: 64.1%.
With `O=[N+]([O-])c1cc([N+](=O)[O-])c(OC2CCCCC2O)c([N+](=O)[O-])c1` (stereo not drawn) the inhibition was inactive: -1.25%.
With `CP(=O)(Nc1ccccc1)Oc1ccc(F)cc1` (stereo not drawn) the inhibition was inactive: 11%.
